This is a selection; strong and weak results do not stand in their true shares. The source made the active and inactive calls.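 How the source made its calls: active means inhibition above mean plus 3 SD of compounds lying within the high and low control bounds (cut at about 19% in these data); inactive means the rest.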
Biological target: Group 3 secretory phospholipase A2 (Homo sapiens) (UniProt Q9NZ20)
Test: HGIII-sPLA2 enzyme inhibition – biochemical, QFRET, BODIPY PC-A2 liposome substrate, primary screen (AID 743126);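 further: 0% = median of test compound wells and 100% = no enzyme DMSO wells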
Details: QFRET BODIPY PC-A2 liposome hydrolysis, fluorescence; at 12.2 µM; active compounds read high

Amino acid sequences for entries named in this document (tags omitted).
UniProt Q9NZ20, whole entry: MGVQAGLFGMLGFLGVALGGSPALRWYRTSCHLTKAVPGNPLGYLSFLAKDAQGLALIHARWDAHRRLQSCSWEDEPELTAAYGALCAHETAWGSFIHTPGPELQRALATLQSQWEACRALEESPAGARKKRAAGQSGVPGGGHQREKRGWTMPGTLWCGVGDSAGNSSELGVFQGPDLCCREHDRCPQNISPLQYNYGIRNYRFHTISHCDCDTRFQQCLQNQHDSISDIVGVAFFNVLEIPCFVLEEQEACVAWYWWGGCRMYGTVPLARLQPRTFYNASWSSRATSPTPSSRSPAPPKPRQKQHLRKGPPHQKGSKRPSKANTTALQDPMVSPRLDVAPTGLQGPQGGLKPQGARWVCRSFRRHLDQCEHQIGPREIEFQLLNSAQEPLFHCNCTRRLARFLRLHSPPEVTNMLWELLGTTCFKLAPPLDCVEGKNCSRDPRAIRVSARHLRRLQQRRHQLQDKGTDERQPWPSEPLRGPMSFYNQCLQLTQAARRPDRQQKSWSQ

Structure (SMILES)	inhibition
CCC(=O)N(c1ccccc1)C1(COC)CCN(CCc2cccs2)CC1	inactive: -5.64%
CCC(=O)N(c1ccccc1)C1(COC)CCN(CCn2nnn(CC)c2=O)CC1	inactive: 10.2%

Source: PubChem BioAssay AID743126 (The Scripps Research Institute Molecular Screening Center, 2013)
